Reference: patent US9856220B2 (AbbVie Deutschland GmbH & Co. KG, priority 2011, dated 2018)

Protein sequences, listed by entry. Tags and fused reporters are not part of them.
UniProt Q9Y233, whole entry, species assumed: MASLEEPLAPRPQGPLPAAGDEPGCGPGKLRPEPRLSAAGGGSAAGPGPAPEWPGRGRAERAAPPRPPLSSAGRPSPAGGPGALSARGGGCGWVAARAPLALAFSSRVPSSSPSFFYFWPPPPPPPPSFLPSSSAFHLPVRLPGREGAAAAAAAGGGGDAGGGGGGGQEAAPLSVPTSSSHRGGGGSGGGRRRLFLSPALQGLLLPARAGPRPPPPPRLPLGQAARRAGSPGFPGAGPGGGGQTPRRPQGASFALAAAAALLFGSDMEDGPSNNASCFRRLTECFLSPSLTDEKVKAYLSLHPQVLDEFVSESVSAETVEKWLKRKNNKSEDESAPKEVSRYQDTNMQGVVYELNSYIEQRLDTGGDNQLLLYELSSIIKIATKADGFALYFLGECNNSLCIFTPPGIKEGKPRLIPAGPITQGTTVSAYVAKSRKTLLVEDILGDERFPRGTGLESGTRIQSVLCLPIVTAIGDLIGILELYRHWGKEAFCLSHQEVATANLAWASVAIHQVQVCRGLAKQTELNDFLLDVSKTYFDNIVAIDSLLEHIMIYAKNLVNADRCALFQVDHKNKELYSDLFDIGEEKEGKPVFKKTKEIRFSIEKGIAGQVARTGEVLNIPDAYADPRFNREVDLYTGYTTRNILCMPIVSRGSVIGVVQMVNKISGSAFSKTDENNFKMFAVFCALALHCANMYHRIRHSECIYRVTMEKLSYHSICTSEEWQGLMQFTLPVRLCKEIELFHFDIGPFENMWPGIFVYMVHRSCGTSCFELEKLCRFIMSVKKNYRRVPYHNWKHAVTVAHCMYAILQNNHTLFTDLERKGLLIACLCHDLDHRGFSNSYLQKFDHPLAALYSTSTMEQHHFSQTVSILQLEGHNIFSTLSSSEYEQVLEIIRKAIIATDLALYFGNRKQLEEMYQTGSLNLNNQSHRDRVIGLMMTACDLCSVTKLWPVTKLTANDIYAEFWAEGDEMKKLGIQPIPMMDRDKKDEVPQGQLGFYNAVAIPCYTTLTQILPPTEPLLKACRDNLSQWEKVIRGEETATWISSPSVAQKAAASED

Target: PDE10A (Homo sapiens (Human), UniProt Q9Y233)
Experiment: Measurement of PDE activity (recombinant PDE, cAMP HTRF)
Format: biochemical
Experimental: a) Measurement of PDE Activity
The recombinant PDE proteins are used in in vitro enzymatic reaction for measurement of PDE activity. These recombinant proteins, including PDE10A (human, rat and mouse PDE10) and isoforms of PDEs 1, 3, 4, and 5, were purchased from commercial vendor BPS Bioscience. The enzymatic activity of PDEs was determined by cAMP measurement kit from CisBio (IBA) using HTRF technology.
The PDE enzymatic reaction was carried out in assay buffer (20 mM Tris-HCl pH7.5, 10 mM MgCl2, 0.1% bovine serum albumin) containing enzyme and substrate. […] The substrate cyclic nucleotide (cAMP or cGMP) concentration used in the assay was 20 nM for PDE10, and 100 nM for other PDEs. The inhibitory effect of compound was determined by incubating various concentration of inhibitor in the enzymatic assay. […] Next, the compound at varying concentration was mixed with PDE enzyme. The reaction was initiated by addition of cyclic nucleotide substrate, and incubated for 60 minutes at 29 C. The reaction was stopped by addition of lysis buffer from assay kit. The cAMP-d2 and anti-cAMP cryptate in the lysis buffer detected the level of cAMP left from the PDE hydrolysis reaction. […] Thus, IC50 value of inhibitor can be obtained by plotting inhibitor concentration against PDE activity at that concentration.

| Compound | IC50 [nM] |
| --- | --- |
| CCn1cc(C(=O)NC(C)c2ccc(F)cc2)c2cc(OC)c(OC)cc2c1=O (centres unmarked) [Example 39, 2-Ethyl-6,7-dimethoxy-1-oxo-1,2-dihydro-isoquinoline-4-carboxylic acid [1-(4-fluoro-phenyl)-ethyl]-amide] | 100 to 200 |
| CCn1cc(C(=O)N[C@@H](C)c2ccc(F)cc2)c2cc(OC)c(OC)cc2c1=O [Example 165, (S)-2-Ethyl-N-(1-(4-fluorophenyl)ethyl)-6,7-dimethoxy-1-oxo-1,2-dihydroisoquinoline-4-carboxamide] | 100 to 200 |
